{
  "source": "paper PMC12392461",
  "about": "“Beyond Estrogenicity: A Comparative Assessment of Bisphenol A and Its Alternatives in In Vitro Assays Questions Safety of Replacements” (Environmental Science & Technology, 2025)",
  "system": "Mitochondrial Membrane Potential",
  "data": [
    {"smiles": "O=S(=O)(c1ccc(O)cc1)c1ccc(O)cc1", "note": "[BPS, 4,4'-Sulfonyldiphenol]", "values": [
      {"measurement": "SR (MMP inhibition)", "result": "> 10"}
    ]}
  ]
}
